S100A4 MyoIIA: inhibitors of S100A4-myosin IIA peptide binding, primary screen, biochemical, fluorescence polarization, TAMRA-MyoIIA peptide | actives 0.14% (n = 360,000) | AID 652163, 2013 | Protein S100-A4 (Homo sapiens), P26447 | inhibition, % at 10.7 µM;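 active = mean inhibition of at least 70% across replicates, with every replicate also reaching that level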
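Assay system: human S100A4 monomer with TAMRA-labelled myosin IIA peptide / Buffer or medium: Calcium-containing HEPES buffer, pH 7.2 / Reagent: TAMRA-labelled myosin IIA heavy-chain peptide probe, 5 nM / Compound: one dose per compound / Timing: polarization read 5 min after assay mix addition, stable 5–60 min / Benchmarks: neutral control DMSO, positive control TFP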
ERAP1 HTS inh: human ERAP1 aminopeptidase inhibitors, primary screen, biochemical, single point, plate reader. Endoplasmic reticulum aminopeptidase 1 (Homo sapiens), Q9NZ08. recombinant ERAP1, Leu-AMC fluorescence, 60 min. inhibition, % at 10.7 µM. actives 0.15% (n = 340,000). AID 652197, 2013;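 active = mean replicate inhibition of at least 30%, or all replicates individually reaching that 30% level; inactive = mean below 30% and not every replicate reaching it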;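 also: 0% = neutral control wells and 100% = L-leucinethiol positive control wells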
Yeast UUG start-1: yeast start codon fidelity modulation | S. cerevisiae UUG-firefly luciferase reporter, luminescence/redox ratio | activity score, % at 18.7 µM | hit rate 0.13% among 350,000 | AID 602363;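 active means replicate mean at a twofold rise or more, about +100% in these data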;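 further: firefly luciferase made from a UUG start codon reports start codon fidelity; reporter light over untreated wells divided by growth signal over untreated wells; some hits fall short of that in this replicate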
MLL AF4-AF9 inh: inhibitors of AF4 peptide binding to AF9, primary screen, biochemical, AlphaScreen, biotin-AF4 peptide, FLAG-AF9, single point | inhibition, % at 10 µM | actives 0.47% (n = 350,000) | Protein AF-9 (Homo sapiens), P42568 | AID 651704, 2012;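 active = every replicate reaching a set inhibition limit, whatever the replicate mean, cut at about 25% in these data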;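 also: 0% = plate neutral control median and 100% = total signal loss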
E-sel inducer: E-selectin induction in HUVECs, primary screen, imaging, HUVEC, immunofluorescence imaging, single point. actives 0.37% (n = 260,000). AID 686992, 2013. P16581. activation, % at 7.58 µM. normalized: neutral wells 0, TNF-alpha wells 100;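 active = mean E-selectin-positive cell signal at least 10% of the positive control, reached in at least 60% of replicates, without over 20% cell loss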
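Test system: HUVEC | Signal: Immunofluorescence imaging | Read-out: Percent E-selectin-positive cells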
ARNT TACC3 PPI: disruptors of ARNT/TACC3 protein interaction, primary screen, biochemical, AlphaScreen, single concentration; AlphaScreen His-ARNT PAS-B/GST-TACC3 binding, luminescence; TACC3 fragment carries E629A point mutation; AID 623870, 2012; inhibition, % at 9.99 µM; Transforming acidic coiled-coil-containing protein 3 (Homo sapiens), Q9Y6A5; actives 0.66% (n = 390,000);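 active = mean inhibition of replicates at least 50% and at least half of replicates each reaching 50%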;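 also: 0% = complete ARNT plus TACC3 wells and 100% = ARNT alone without TACC3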
Yeast UUG start-2: enhancers of UUG start codon usage in yeast, dose response, S. cerevisiae, UUG firefly luciferase, cherry-pick, set 2 | shares compounds with Yeast UUG start-1 | luminescence, 4 h; 100% means double the DMSO signal | activation, % at 38 µM | 540 tested, under 10 active | AID 652061, 2013;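 active = signal increase whose fitted curve reaches an absolute level of 40 at a concentration under 10 µM; inactive = activity opposite to the expected increase, or the rest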
An asterisk follows results filed as active; i = inactive; x = no result. Shown are actives, neighbours in structure and some others; about 1.3% of the full set was active somewhere.

By UniProt entry, the sequences of proteins in these tests, tags left out.
Protein AF-9 (Homo sapiens), P42568, UniProt P42568, whole entry, looked up: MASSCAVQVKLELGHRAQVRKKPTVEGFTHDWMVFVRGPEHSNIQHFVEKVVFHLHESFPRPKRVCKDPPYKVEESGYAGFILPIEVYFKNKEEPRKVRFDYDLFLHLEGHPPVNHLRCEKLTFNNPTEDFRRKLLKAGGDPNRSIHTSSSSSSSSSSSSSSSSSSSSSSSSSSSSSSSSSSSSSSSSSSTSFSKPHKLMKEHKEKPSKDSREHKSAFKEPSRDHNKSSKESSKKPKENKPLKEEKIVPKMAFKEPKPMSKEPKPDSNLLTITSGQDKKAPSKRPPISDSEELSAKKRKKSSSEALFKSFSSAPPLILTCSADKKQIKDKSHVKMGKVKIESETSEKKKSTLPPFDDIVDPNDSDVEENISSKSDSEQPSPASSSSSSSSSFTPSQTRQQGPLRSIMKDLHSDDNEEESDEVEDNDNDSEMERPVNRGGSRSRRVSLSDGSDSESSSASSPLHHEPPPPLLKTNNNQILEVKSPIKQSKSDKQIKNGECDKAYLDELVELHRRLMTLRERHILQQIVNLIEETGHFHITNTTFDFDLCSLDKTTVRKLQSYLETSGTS

entry | SMILES | Yeast UUG start-1 | S100A4 MyoIIA | E-sel inducer | MLL AF4-AF9 inh
1 | O=c1c2c(n3cnnc3n1-c1ccccc1)-c1ccccc1CC21CCCCC1 | active | x | x | x
2 | Cc1cccc(-n2c(=O)c3c(n4cnnc24)-c2ccccc2CC32CCCCC2)c1 | 4 | x | x | x
3 | CNC(=O)c1ccccc1NC(=O)c1cccc(S(=O)(=O)N2CCCCC2)c1 | 188* | 4 | 1 | -2
4 | CNC(=O)c1ccccc1NC(=O)c1cccc(S(=O)(=O)N2CCC(C)CC2)c1 | x | x | x | x
5 | OCc1nc2ccccc2n1CCCCOc1ccccc1 | -12 | -6 | 0 | -2
6 | Cc1ccc(OCCCCn2c(CO)nc3ccccc32)cc1 | 130* | -2 | x | 1
7 | COC(=O)c1c2oc(c1C(=O)OC)C(=O)N[C@H](Cc1ccccc1)Cn1cc(nn1)CNC(=O)[C@H](Cc1ccccc1)NC(=O)N[C@@H](CO)CC2 | 216* | 1 | x | -3
8 | COC(=O)c1c2oc(c1C(=O)OC)C(=O)N[C@@H](Cc1ccccc1)Cn1cc(nn1)CNC(=O)[C@H](Cc1ccccc1)NC(=O)N[C@@H](CO)CC2 | 113* | 3 | x | 5
9 | CCC(=O)N(C)C[C@@H]1Oc2cc(C#CCC3CCCC3)ccc2S(=O)(=O)N([C@@H](C)CO)C[C@@H]1C | 16 | -26 | 0 | 3
10 | Cc1cc(N2CCOCC2)nc2ccc(NC(=S)N3CCCCC3C)cc12 (stereo not drawn) | 143* | 3 | x | 10

entry | ARNT TACC3 PPI | Yeast UUG start-2 | ERAP1 HTS inh
1 | 4 | -9 | x
2 | -2 | x | x
3 | -5 | -3 | 0
4 | -2 | x | x
5 | -6 | x | 2
6 | -1 | 4 | 2
7 | -9 | i | 3
8 | 3 | i | -2
9 | 1 | x | 2
10 | x | 0 | -5

Next section:
entry | SMILES | Yeast UUG start-1 | S100A4 MyoIIA | E-sel inducer | MLL AF4-AF9 inh
11 | CCc1ccccc1OCC(=O)OCC(=O)Nc1cc(C)on1 | -18 | 1 | -1 | 0
12 | Cc1cc(NC(=O)COC(=O)COc2ccc(C(=O)c3ccccc3)cc2)no1 | 184* | x | x | x
13 | CCCc1cc(C(=O)N/N=C/c2ccc(CC)s2)c2ccccc2n1 | 413* | x | x | x
14 | O=C1C2CCCCN2C(=O)N1CCCCN1CCN(c2cccc(Cl)c2)CC1 (stereo not drawn) | 2 | 2 | 0 | 1
15 | CC(C)C(=O)Nc1cccc(N2CCN(CCCN3C(=O)C4CCCCN4C3=O)CC2)c1 (stereo not drawn) | 105* | -1 | 0 | 8
16 | COc1cc(OC)cc(C(=O)Nc2cccc(NC(=O)c3cccs3)c2)c1 | 124* | -2 | -1 | -1
17 | COc1ccc(C(=O)Nc2cccc(NC(=O)c3cccs3)c2)cc1 | -4 | -1 | x | -2
18 | O=[N+]([O-])c1cc(C(F)(F)F)ccc1Oc1cccnc1[N+](=O)[O-] | 190* | x | x | x
19 | O=C(CNC(=O)c1ccco1)N=Nc1c(O)n(CCc2ccccc2)c2ccccc12 | 229* | -2 | 0 | -15
20 | CC(C)CC#Cc1ccc([C@@H]2[C@@H](CO)N3CCCCN(S(=O)(=O)c4ccc(F)cc4)C[C@H]23)cc1 | 13 | -4 | 0 | 5

entry | ARNT TACC3 PPI | Yeast UUG start-2 | ERAP1 HTS inh
11 | 0 | x | 1
12 | -3 | 6 | x
13 | 2 | 0 | x
14 | -1 | x | -2
15 | 0 | -3 | 0
16 | x | 18 | -3
17 | -2 | x | -3
18 | x | 17 | x
19 | 8 | 2 | 3
20 | 3 | x | -1

Next section:
entry | SMILES | Yeast UUG start-1 | S100A4 MyoIIA | E-sel inducer | MLL AF4-AF9 inh
21 | CC(C)CC#Cc1ccc([C@H]2[C@@H](CO)N3CCCCN(S(=O)(=O)c4ccc(F)cc4)C[C@H]23)cc1 | 81* | -3 | -1 | 4
22 | Cc1noc(C)c1-c1ccc(C(=O)NCC2CC2)c2occc12 | -26 | -8 | 0 | 0
23 | O=C(NCC1CC1)c1ccc(-n2ccnc2)c2ccoc12 | 163* | 5 | 0 | -2
24 | CS(=O)(=O)Nc1cccc(NC(=O)c2ccc(-n3ccnc3)c3ccoc23)c1 | 115* | 0 | 1 | -5
25 | O=C(CN1CCCc2ccccc21)N/N=C/c1ccccc1O | 67* | x | x | x
26 | COc1nc(C)ccc1-c1noc(-c2cccs2)n1 | 528* | -18 | x | -4
27 | C[C@@H]1CCCCO[C@H](CN(C)C(=O)CCC(F)(F)F)[C@H](C)CN([C@@H](C)CO)C(=O)c2cc(NC(=O)NC3CCCCC3)ccc2O1 | 8 | -2 | 2 | 1
28 | CC(=O)N(C)C[C@H]1Oc2ncc(C#Cc3ccccc3F)cc2C(=O)N([C@@H](C)CO)C[C@H]1C | 2 | 6 | -1 | 1
29 | CC(C)C(O)(C#CCN1CCCC1)c1ccccc1 (stereo not drawn) | x | x | x | x
30 | CC(C)C(O)(C#CCN1CCCCC1)c1ccccc1 (stereo not drawn) | x | x | x | x

entry | ARNT TACC3 PPI | Yeast UUG start-2 | ERAP1 HTS inh
21 | -2 | i | 0
22 | x | x | 5
23 | x | -7 | 2
24 | x | -8 | -3
25 | 0 | 10 | x
26 | -2 | -24 | x
27 | -2 | x | 0
28 | -6 | x | -2
29 | -11 | -1 | x
30 | 4 | x | x

The results go on:
entry | SMILES | Yeast UUG start-1 | S100A4 MyoIIA | E-sel inducer | MLL AF4-AF9 inh
31 | CCCN(CC#CC(O)(c1ccccc1)c1cccnc1)CCC (stereo not drawn) | x | 1 | x | 0
32 | OC(C#CCN1CCCC1)(c1ccccc1)c1cccnc1 (stereo not drawn) | 134* | 1 | 0 | -1
33 | OC(C#CCN1CCCCCC1)(c1ccccc1)c1cccnc1 (stereo not drawn) | x | -9 | x | 1
34 | OC(C#CCCN1CCCCC1)(c1ccccc1)c1ccccc1 | -3 | 2 | x | -1
35 | C[C@@H]1CN([C@H](C)CO)S(=O)(=O)c2ccc(-c3ccccc3F)cc2O[C@H]1CN(C)C(=O)C1CC1 | 4 | 8 | 0 | 2
36 | CCN(CC)CC(=O)Nc1ccc2c(c1)N(C(=O)CN(CC)CC)c1ccccc1CC2 | -7 | -2 | x | -36
37 | CCN(CC)CC(=O)N1c2ccccc2CCc2ccc(NC(=O)c3cc(OC)c(OC)c(OC)c3)cc21 | active | -1 | 0 | 12
38 | C=CCn1c(CCNC(=O)c2ccc(Cl)c(Cl)c2)nnc1SCCOc1ccc(OC)cc1 | 5 | 2 | x | 2

entry | ARNT TACC3 PPI | Yeast UUG start-2 | ERAP1 HTS inh
31 | -6 | -3 | -1
32 | 11 | -4 | 1
33 | 2 | 22 | -3
34 | 5 | x | -1
35 | -5 | x | -4
36 | 9 | x | -5
37 | x | 0 | 5
38 | 4 | x | 0

Rewritten with one line to a screen: part of the list above
29. CC(C)C(O)(C#CCN1CCCC1)c1ccccc1 (stereo not drawn)
30. CC(C)C(O)(C#CCN1CCCCC1)c1ccccc1 (stereo not drawn)
31. CCCN(CC#CC(O)(c1ccccc1)c1cccnc1)CCC (stereo not drawn)
32. OC(C#CCN1CCCC1)(c1ccccc1)c1cccnc1 (stereo not drawn)
entry no.,29,30,31,32
Yeast UUG start-1,x,x,x,134*
S100A4 MyoIIA,x,x,1,1
E-sel inducer,x,x,x,0
MLL AF4-AF9 inh,x,x,0,-1
ARNT TACC3 PPI,-11,4,-6,11
Yeast UUG start-2,-1,x,-3,-4
ERAP1 HTS inh,x,x,-1,1

Screens: PubChem, Broad Institute
